We go through four molecules from PubChem BioAssay (NCATS).

The chains behind the UniProt entries cited, without tags or fusion partners.
UniProt Q99828, whole entry: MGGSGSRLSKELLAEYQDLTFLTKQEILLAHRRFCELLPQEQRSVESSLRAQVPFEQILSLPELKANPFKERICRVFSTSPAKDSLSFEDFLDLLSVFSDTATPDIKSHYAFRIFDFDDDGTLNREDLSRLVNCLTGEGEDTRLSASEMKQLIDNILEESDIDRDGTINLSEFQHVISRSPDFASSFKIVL
UniProt P10635, whole entry: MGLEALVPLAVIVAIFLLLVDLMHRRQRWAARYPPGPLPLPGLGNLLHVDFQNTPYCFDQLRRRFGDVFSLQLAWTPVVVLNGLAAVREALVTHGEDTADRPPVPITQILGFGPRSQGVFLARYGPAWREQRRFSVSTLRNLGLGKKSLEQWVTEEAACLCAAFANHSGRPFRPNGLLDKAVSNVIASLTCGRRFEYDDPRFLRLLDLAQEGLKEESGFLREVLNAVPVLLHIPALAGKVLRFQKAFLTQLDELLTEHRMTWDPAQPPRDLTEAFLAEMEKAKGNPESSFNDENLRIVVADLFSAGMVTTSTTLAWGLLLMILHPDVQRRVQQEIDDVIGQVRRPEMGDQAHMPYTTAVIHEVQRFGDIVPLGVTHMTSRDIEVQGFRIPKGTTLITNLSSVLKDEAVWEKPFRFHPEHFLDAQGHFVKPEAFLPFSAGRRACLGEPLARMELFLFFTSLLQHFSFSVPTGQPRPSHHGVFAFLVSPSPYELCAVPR
UniProt O15297, whole entry: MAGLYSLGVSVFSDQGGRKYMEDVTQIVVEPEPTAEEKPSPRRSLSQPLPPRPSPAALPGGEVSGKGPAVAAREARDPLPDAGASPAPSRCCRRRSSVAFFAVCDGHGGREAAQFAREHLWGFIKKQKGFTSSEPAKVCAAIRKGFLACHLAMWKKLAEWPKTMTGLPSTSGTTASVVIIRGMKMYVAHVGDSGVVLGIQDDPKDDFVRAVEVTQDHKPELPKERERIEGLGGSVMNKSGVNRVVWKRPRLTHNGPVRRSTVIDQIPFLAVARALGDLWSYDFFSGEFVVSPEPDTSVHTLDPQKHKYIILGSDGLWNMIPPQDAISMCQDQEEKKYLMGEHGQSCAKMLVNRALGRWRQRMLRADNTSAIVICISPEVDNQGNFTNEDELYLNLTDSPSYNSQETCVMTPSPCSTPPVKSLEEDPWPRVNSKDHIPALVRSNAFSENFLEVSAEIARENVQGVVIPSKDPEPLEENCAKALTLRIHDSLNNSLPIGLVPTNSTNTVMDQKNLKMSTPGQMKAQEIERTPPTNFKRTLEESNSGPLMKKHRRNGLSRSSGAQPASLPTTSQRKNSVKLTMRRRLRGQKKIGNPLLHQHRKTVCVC

The nature of assay [1]: qHTS to identify inhibitors of the type 1 interferon - major histocompatibility complex class I in skeletal muscle: primary screen against the NCATS Mechanism Interrogation Plate v5.0 (MIPE) Libary (AID 1347411).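 Further: plate controls were vehicle for no effect and reference inhibitor for full effect; nearly all actives have a fitted effect of over 65% in size.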 Particulars: iHSKM cells + IFN-b, HiBiT-tagged MHC-I luminescence, 24 h; at 45.8 µM (top of the series). In outline:
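Luminescence from CRISPR HiBit-tagged endogenous HLA-B in human myoblasts reported MHC class I level after 24 h of IFN-beta (4 ng/ml) plus compound. Compounds ran as 11-point 1:3 series, top 46 uM final.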

The target of assay [2] is Calcium and integrin-binding protein 1 (Homo sapiens) (UniProt Q99828). The assay can be described thus: Primary qHTS for Identification of Calcium Integrin Binding Protein 1 (CIB1) Competitor (AID 1508620).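 Further: GST tagged CIB1 binding a fluorescein labelled alphaIIb integrin peptide tracer; top concentration of the series differs between compounds; on the % scale 0 is the no-effect control and ±100 the full control effect.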 Particulars: CIB1-GST / FITC-alphaIIb peptide fluorescence polarization; at 114 µM (top of the series) unless noted. In outline:
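Fluorescence polarization competition: GST-tagged CIB1 (1 uM final) preincubated with compound 15 min at room temperature, then FITC-labelled alphaIIb peptide (100 nM final) added. After 15 min at room temperature, polarization read at Ex 480/Em 540.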

In assay [3] the target is Cytochrome P450 2D6 (Homo sapiens) (UniProt P10635). The experiment in a line: Cytochrome P450 family 2 subfamily D member 6 (CYP2D6) small molecule antagonists: luciferase biochemical (cell-free) qHTS assay (AID 1645840; active means well fitted curve in the direction sought with a large enough effect in the repeat runs; an effect the other way counts as inactive or inconclusive; further: nearly all actives have a fitted effect of over 55% in size; further: potency means the concentration at half of the fitted maximal effect; on activity change, negative = inhibition: on the % scale 0 is the no-effect control and ±100 the full control effect). In outline: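 P450-Glo CYP2D6 system: proluciferin substrate converted by enzyme to luciferin, read by luminescence proportional to activity. Enzyme-substrate mix with compound 10 min at room temperature, then NADPH regeneration 1 h before detection reagent.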

A short description of assay [4]: qHTS to identify inhibitors of the type 1 interferon - major histocompatibility complex class I in skeletal muscle: primary screen against the NCATS Pharmaceutical Collection (AID 1347407).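 Further: luminescence of HiBiT knocked into endogenous HLA-B as interferon-induced MHC class I level; on the % scale 0 is the no-effect control and ±100 the full control effect.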 The following applies: human skeletal muscle cells, IFN-b-induced MHC-I HiBiT luminescence, 24 h; at 45.9 µM (top of the series). In outline: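 HLA-B HiBiT myoblasts, dexamethasone-free growth medium + 4 ng/ml IFN-b; compounds pinned 1 h after seeding, […] from 46 uM; 24 h, 37 C, 5% CO2; lytic HiBiT detection, 10 min RT, luminescence.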

The target of assay [5] is Protein phosphatase 1D (Homo sapiens) (UniProt O15297). The experiment in a line: RapidFire Mass Spectrometry qHTS Assay for Modulators of WT P53-Induced Phosphatase 1 (WIP1) (AID 1347424).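 Further: plate controls were DMSO wells for no effect and GSK830371 inhibitor control at 10 µM for full effect.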 Particulars: WIP1 dephosphorylation of phosphopeptide, RapidFire MS; at 63 µM (top of the series). In outline:
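RapidFire MS readout of dephosphorylated VEPPL-S-QETFS product, with 1 uM isotope-labelled peptide standard. Reaction: 10 nM WIP1, 2 uM phosphopeptide substrate, 5 min, room temperature, after 1 h compound preincubation; stopped with 0.5% formic acid.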

The target is the same in assay [6]. The experiment in a line: Rhodamine-PBP qHTS Assay for Modulators of WT P53-Induced Phosphatase 1 (WIP1) (AID 1347425). Further: % of control where 0% means no effect. The following applies: recombinant WIP1, Rhodamine-PBP phosphate fluorescence, real-time; at 57.5 µM (top of the series). In outline: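 Read-out: Rhodamine-PBP fluorescence (ex 525/em 598 nm) for released Pi, read each minute for 11 min after adding 10 uM VEPPL-pS-QETFS; signal taken as f1 minus pre-substrate f0. Enzyme 5 nM WIP1 with 1 hr room-temperature compound preincubation.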

Assay [7] is described as follows: Primary qHTS for small molecule stabilizers of the endoplasmic reticulum resident proteome: Secreted ER Calcium Modulated Protein (SERCaMP) assay (AID 1508630). Further: on the % scale 0 is the no-effect control and ±100 the full control effect. The following applies: SH-SY5Y GLuc-SERCaMP (Gaussia luciferase released on ER calcium loss) secretion, thapsigargin, luminescence; at 38.4 µM (top of the series). In outline: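 The SH-SY5Y reporter protocol was run at 3 concentrations up to 38.3 uM (primary) or 11 concentrations (follow-up): 16 h compound, 100 nM thapsigargin for 4 h, then extracellular luciferase luminescence.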

Assay [8] can be described thus: A High-Content qHTS Against Drug Library for the Identification of Small Molecules that Inhibit DYT1 Early Onset Primary Dystonia-Associated Cell Pathology (AID 1645839; calls by dose curve). The following applies: HEK293 Flp-In EGFP-delE TorsinA, punctate imaging, 48 h; at 46.1 µM (top of the series). In outline:
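Cells were seeded and left for 24 h, then dosed with compound alongside tetracycline induction of mutant EGFP-TorsinA. They were incubated for 48 h, fixed in 4% paraformaldehyde, permeabilized and imaged for mislocalization (%pathology) and cell count.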

Assay [9] is described as follows: qHTS of pediatric cancer cell lines to identify multiple opportunities for drug repurposing: Confirmatory screen for BT-37 cells (AID 1347117).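 Further: plate controls were DMSO for no effect and bortezomib for full effect; nearly all actives have a fitted effect of over 55% in size.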 Particulars: BT-37 pediatric cancer cells, viability; at 45.9 µM (top of the series). In outline:
(§1)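 Viability after 48 h compound treatment at 37C, 500-1,000 cells/well, read as ATP luminescence with CellTiter-Glo. Primary screens used 11-point (MIPE, 0.78 nM-46 µM) or 8-point (NPC, 0.59 nM-46 µM) final concentrations; follow-up screens used 11-point dilutions.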

Assay [10] is described as follows: qHTS of pediatric cancer cell lines to identify multiple opportunities for drug repurposing: Confirmatory screen for TC32 cells (AID 1347118).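 Further: cells exposed to compound for 48 h before the read; on the % scale 0 is the no-effect control and ±100 the full control effect; nearly all actives have a fitted effect of over 65% in size.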 The following applies: TC32 Ewing sarcoma cells viability qHTS; at 45.9 µM (top of the series). In outline: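 Luminescent CellTiter-Glo read-out of metabolically active TC32 cells after 48 h compound exposure. Primary: MIPE 11-point, 0.78 nM–46 µM; NPC 8-point, 0.59 nM–46 µM. Confirmatory: 11-point dilutions.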

A short description of assay [11]: qHTS of pediatric cancer cell lines to identify multiple opportunities for drug repurposing: Confirmatory screen for MG 63 (6-TG R) cells (AID 1347119).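 Further: plate controls were DMSO neutral control for no effect and bortezomib for full effect; nearly all actives have a fitted effect of over 55% in size.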 Particulars: MG-63 (6-TG resistant) osteosarcoma viability; at 45.9 µM (top of the series). In outline:
as §1

The nature of assay [12]: qHTS of pediatric cancer cell lines to identify multiple opportunities for drug repurposing: Confirmatory screen for control Hh wild type fibroblast cells (AID 1347121).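 Further: plate controls were DMSO for no effect and bortezomib for full effect; nearly all actives have a fitted effect of over 70% in size.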 Particulars: viability qHTS; at 45.9 µM (top of the series). In outline:
as §1

The nature of assay [13]: qHTS of pediatric cancer cell lines to identify multiple opportunities for drug repurposing: Confirmatory screen for U-2 OS cells (AID 1347122).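 Further: plate controls were DMSO for no effect and bortezomib for full effect; nearly all actives have a fitted effect of over 65% in size.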 Particulars: U-2 OS osteosarcoma cell viability; at 45.9 µM (top of the series). In outline: as §1
Assay [14] is described as follows: qHTS of pediatric cancer cell lines to identify multiple opportunities for drug repurposing: Confirmatory screen for Rh41 cells (AID 1347123).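 Further: plate controls were DMSO for no effect and bortezomib for full effect; nearly all actives have a fitted effect of over 60% in size.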 The following applies: Rh41 rhabdomyosarcoma cells, viability/cytotoxicity qHTS; at 45.9 µM (top of the series). In outline:
as §1

The nature of assay [15]: qHTS of pediatric cancer cell lines to identify multiple opportunities for drug repurposing: Confirmatory screen for RD cells (AID 1347124).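 Further: cells exposed to compound for 48 h before viability readout; on the % scale 0 is the no-effect control and ±100 the full control effect; nearly all actives have a fitted effect of over 65% in size.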 The following applies: RD rhabdomyosarcoma cell viability; at 45.9 µM (top of the series). In outline:
as §1

Assay [16] can be described thus: qHTS of pediatric cancer cell lines to identify multiple opportunities for drug repurposing: Confirmatory screen for Rh18 cells (AID 1347125). Further: on the % scale 0 is the no-effect control and ±100 the full control effect; nearly all actives have a fitted effect of over 55% in size. The following applies: Rh18 rhabdomyosarcoma cells, viability; at 45.9 µM (top of the series). In outline: as §1
Assay [17] can be described thus: qHTS of pediatric cancer cell lines to identify multiple opportunities for drug repurposing: Confirmatory screen for Rh30 cells (AID 1347126). Particulars: Rh30 rhabdomyosarcoma cell viability; at 45.9 µM (top of the series). In outline:
as §1

Assay [18] is described as follows: qHTS of pediatric cancer cell lines to identify multiple opportunities for drug repurposing: Confirmatory screen for Saos-2 cells (AID 1347127).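 Further: plate controls were DMSO for no effect and bortezomib for full effect; nearly all actives have a fitted effect of over 60% in size.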 Particulars: Saos-2 osteosarcoma cell viability; at 45.9 µM (top of the series). In outline: as §1
The nature of assay [19]: qHTS of pediatric cancer cell lines to identify multiple opportunities for drug repurposing: Confirmatory screen for OHS-50 cells (AID 1347128). Particulars: OHS-50 osteosarcoma cells viability; at 45.9 µM (top of the series). In outline: as §1
Assay [20] can be described thus: qHTS of pediatric cancer cell lines to identify multiple opportunities for drug repurposing: Confirmatory screen for SK-N-SH cells (AID 1347129).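 Further: cells exposed to compound for 48 h before viability read; plate controls were DMSO for no effect and bortezomib control for full effect; nearly all actives have a fitted effect of over 60% in size.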 The following applies: SK-N-SH neuroblastoma cell viability; at 46.1 µM (top of the series). In outline: as §1

The list shows a part of the results, in another mix than the full data. Records with an inconclusive call do not appear. Activity calls are given as the source filed them. Unless noted, the call rests on the fitted dose curve; in most records, active means well fitted curve in the direction sought with a large enough effect; inconclusive means small, poorly fitted or top-dose-only effect, or another doubt; inactive means no such curve, though single readings can be large; an effect the other way counts as inactive or inconclusive.

For `CCOC(=O)C(=O)CBr`, the activity change, negative = inhibition in [1] was inactive: 10.4%; in assay [2], inactive: 4.27% [at 57.7 µM].
Turning to `CC(=O)N1CCc2ccc(N(C(=O)/C=C/c3cccc(C#N)c3)C3CCN(CCC4CCCC4)CC3)cc21`, the activity change, negative = inhibition in [2] is inactive: 2.89%. In addition, the Potency in [3] is active: 12 µM.
As to `CCC(=O)N(c1ccccc1)C1CCNCC1`, the activity change, negative = inhibition in [4] was inactive: 1.27%; in assay [5], inactive: -2.17%; in assay [6], inactive: 1.18%; in [2], inactive: -2.66%; in assay [7] it was inactive: -2.4%. For the same molecule, the % pathology change, negative = correction in assay [8] is inactive: -0.167%. Besides, the Potency in assay [3] was active: 15.5 µM.
Turning to `CCOC(=O)N1CCC(=O)CC1`, the activity change, negative = cytotoxic in [9] is inactive: -4.45%; in assay [14], inactive: 29.9%; in [15], inactive: 9.13%; in assay [16], inactive: -13.3%; in assay [17], inactive: 27.1%; in assay [18], inactive: 20.6%. In addition, the activity change, negative = cytotoxic is inactive: 1.46% in assay [19] and inactive: 10.8% in [20]. In addition, the activity change, negative = cytotoxicity in assay [10] is inactive: 2.63%; in assay [11], inactive: 5.92%; in assay [13], inactive: 12.7%. Moreover, the activity, negative = cytotoxic in assay [12] was inactive: 5%. In addition, the activity change, negative = inhibition was inactive: 17.4% in assay [4]; inactive: 4.73% in [5]; inactive: 9.5% in [6]; inactive: -4.16% in [2]; inactive: -13.9% in assay [7]. The % pathology change, negative = correction in assay [8] was inactive: 11.3%. For the same molecule, the Potency entry in assay [3] is “inactive”.
